# Where two headings read alike, the source gives them in different places.
# Test system: S. cerevisiae JPY201 expressing Pgp variants
# Conditions: for Growth reached in continuous FK506 drug resistance assay: in about 30 hours, when WT Pgp had reached confluency, 23 °C; for Resistance to FK506 (relative to Wt Pgp): 50 µg/ml FK506
structure (smiles),measurement,setting,value
C=CC[C@@H]1/C=C(\C)C[C@H](C)C[C@H](OC)[C@H]2O[C@@](O)(C(=O)C(=O)N3CCCC[C@H]3C(=O)O[C@H](/C(C)=C/[C@@H]3CC[C@@H](O)[C@H](OC)C3)[C@H](C)[C@@H](O)CC1=O)[C@H](C)C[C@@H]2OC [FK506],FK506 resistance,"yeast expressing Trp-free mutants A, B, and C of Fig. 4, 50 μg/ml FK506 for 30 hrs",< 20 % of WT activity
same,Drug resistance (FK506),"yeast expressing Trp-free mutants D, E, F and G of Fig. 4, 50 μg/ml FK506 for 30 hrs",< 20 % of WT activity
same,Time to 50% growth in continuous FK506 drug resistance assay,yeast expressing W(3Cyto),28 h
same,Growth reached in continuous FK506 drug resistance assay,yeast expressing W(3Cyto),~ 70%
same,Time to 50% growth in continuous FK506 drug resistance assay,yeast expressing WL-Pgp,32 h
same,Growth reached in continuous FK506 drug resistance assay,yeast expressing WL-Pgp,~ 40%
same,Time to 50% growth in continuous FK506 drug resistance assay,yeast expressing WT Pgp,24 h
same,Resistance to FK506 (relative to Wt Pgp),yeast expressing mutant B (W(3Cyto)),77 ± 6%
same,Resistance to FK506 (relative to Wt Pgp),yeast expressing mutant C (eight TMD Trps replaced),68 ± 11%
